Results reported in patent US9573956B2, “Compounds as dual inhibitors of phosphodiesterases and histone deacetylases” (FUNDACIÓN PARA LA INVESTIGACIÓN MÉDICA APLICADA, priority 2013, dated 2017).
pIC50: −log10 of the molar value. Where two headings read alike, the source gives them in different places.

The chains behind the UniProt entries cited, without tags or fusion partners. Residues count along the entry.
UniProt O76083, 1-533 isoform 2: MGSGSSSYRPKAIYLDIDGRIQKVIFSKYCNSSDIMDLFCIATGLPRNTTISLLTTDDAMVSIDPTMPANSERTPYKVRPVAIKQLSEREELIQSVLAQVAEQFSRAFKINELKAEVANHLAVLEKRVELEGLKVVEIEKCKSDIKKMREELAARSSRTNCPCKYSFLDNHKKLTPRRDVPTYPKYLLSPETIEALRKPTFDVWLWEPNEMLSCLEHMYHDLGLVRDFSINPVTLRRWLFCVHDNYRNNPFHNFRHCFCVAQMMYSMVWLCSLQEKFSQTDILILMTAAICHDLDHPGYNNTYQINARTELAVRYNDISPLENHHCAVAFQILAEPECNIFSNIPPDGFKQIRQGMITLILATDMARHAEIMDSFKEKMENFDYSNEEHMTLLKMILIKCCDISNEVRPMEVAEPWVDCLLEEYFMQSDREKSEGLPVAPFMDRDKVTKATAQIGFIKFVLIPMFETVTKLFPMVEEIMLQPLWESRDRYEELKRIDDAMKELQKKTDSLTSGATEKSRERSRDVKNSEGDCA
UniProt Q13547, whole entry: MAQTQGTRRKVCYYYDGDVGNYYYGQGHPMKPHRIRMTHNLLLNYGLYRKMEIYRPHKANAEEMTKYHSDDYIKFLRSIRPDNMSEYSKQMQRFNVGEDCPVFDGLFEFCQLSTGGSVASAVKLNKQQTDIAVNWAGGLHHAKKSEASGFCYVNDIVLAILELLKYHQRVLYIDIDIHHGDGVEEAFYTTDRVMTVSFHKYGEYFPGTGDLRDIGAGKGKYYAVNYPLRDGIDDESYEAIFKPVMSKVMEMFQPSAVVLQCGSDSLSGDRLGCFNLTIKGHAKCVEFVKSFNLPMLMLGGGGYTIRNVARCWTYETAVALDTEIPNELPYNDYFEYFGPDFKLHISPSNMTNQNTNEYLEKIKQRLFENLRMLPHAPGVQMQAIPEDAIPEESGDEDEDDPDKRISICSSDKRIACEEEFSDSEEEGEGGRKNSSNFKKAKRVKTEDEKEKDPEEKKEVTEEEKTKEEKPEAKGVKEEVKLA
UniProt Q92769, whole entry: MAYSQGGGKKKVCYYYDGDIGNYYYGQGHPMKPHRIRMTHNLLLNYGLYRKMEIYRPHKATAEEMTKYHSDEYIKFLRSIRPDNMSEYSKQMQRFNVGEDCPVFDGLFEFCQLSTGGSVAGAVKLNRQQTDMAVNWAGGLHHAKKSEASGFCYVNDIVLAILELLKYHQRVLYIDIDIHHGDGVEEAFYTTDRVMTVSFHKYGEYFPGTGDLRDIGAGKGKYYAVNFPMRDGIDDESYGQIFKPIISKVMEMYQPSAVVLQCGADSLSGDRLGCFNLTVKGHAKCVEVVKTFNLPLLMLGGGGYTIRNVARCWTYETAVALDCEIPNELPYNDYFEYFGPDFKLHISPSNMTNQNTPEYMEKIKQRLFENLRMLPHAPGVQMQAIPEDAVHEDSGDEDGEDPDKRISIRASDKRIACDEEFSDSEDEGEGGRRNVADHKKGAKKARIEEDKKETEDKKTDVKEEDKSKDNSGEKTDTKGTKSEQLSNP
UniProt Q9UBN7, whole entry: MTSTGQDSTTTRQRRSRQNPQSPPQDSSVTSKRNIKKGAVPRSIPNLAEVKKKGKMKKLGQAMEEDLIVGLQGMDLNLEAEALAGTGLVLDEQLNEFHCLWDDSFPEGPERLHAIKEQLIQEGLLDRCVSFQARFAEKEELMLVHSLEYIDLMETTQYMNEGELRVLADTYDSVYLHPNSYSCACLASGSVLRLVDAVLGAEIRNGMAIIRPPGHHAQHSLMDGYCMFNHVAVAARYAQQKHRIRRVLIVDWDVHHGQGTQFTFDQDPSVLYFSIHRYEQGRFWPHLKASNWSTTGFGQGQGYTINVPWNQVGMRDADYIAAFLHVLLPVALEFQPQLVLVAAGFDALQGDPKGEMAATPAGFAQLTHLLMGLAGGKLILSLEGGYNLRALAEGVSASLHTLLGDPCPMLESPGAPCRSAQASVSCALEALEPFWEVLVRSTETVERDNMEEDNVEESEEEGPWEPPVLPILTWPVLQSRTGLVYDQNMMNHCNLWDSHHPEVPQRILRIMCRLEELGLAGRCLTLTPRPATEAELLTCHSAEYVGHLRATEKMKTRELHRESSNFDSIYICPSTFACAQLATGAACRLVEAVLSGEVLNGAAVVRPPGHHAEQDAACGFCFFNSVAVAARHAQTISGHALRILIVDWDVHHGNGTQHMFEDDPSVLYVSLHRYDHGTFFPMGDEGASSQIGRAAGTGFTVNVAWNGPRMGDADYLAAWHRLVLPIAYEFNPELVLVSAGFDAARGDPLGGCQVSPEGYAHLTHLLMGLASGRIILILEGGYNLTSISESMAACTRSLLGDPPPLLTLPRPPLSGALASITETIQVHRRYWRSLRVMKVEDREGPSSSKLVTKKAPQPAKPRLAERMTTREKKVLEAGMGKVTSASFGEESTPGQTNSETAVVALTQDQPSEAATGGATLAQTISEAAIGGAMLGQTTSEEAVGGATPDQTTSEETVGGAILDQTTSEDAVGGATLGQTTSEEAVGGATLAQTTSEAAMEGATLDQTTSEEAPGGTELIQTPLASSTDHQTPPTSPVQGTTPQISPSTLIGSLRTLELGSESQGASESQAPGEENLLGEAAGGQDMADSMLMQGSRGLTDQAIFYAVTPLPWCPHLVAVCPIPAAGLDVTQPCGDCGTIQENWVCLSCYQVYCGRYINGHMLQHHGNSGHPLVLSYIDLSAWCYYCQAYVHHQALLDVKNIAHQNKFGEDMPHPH

Experiments:
Type in all cases: biochemical
[1] = molecular target: PDE9A isoform b (Homo sapiens, UniProt O76083); experiment: PDE enzyme activity assay (HTRF cGMP), PDE9A; settings: read-out: PDE9A inhibition (IC50); recombinant enzyme; tested form: trans racemate at the pyrrolidine
[2] = molecular target: HDAC1 (Homo sapiens, UniProt Q13547); experiment: HDAC enzyme activity assay (fluorogenic substrate), HDAC1; settings: read-out: HDAC1 inhibition (IC50), recombinant enzyme
[3] = molecular target: HDAC2 (Homo sapiens, UniProt Q92769); experiment: HDAC enzyme activity assay (fluorogenic substrate), HDAC2; settings: read-out: HDAC2 inhibition (IC50), recombinant enzyme
[4] = molecular target: HDAC6 (Homo sapiens, UniProt Q9UBN7); experiment: HDAC enzyme activity assay (fluorogenic substrate), HDAC6; settings: read-out: HDAC6 inhibition (IC50), recombinant enzyme
[5] = molecular target: PDE5A (Homo sapiens, UniProt O76074); experiment: PDE enzyme activity assay (HTRF cGMP), PDE5A; settings: read-out: PDE5A1 inhibition (IC50); recombinant enzyme
[6] = tested form: trans racemate at the pyrrolidine

SMILES	pIC50 [1]	pIC50 [2, 6]	pIC50 [3, 6]	pIC50 [4, 6]	pIC50 [2]	pIC50 [5]	pIC50 [3]	pIC50 [4]
CC1CN(C2CC(C(=O)NO)C2)CC1c1nc2c(cnn2C2CCOCC2)c(=O)[nH]1 (centres unmarked)	6.00 to 8.00	5.00 to 6.00	< 5.00	5.00 to 6.00	–	–	–	–
CCCc1nn(C)c2c(=O)[nH]c(-c3cc(NC4CCC(C(=O)NO)CC4)ccc3OCC)nc12 (centres unmarked)	–	–	–	–	5.00 to 6.00	6.00 to 8.00	< 5.00	< 5.00
